Measured values as given in PubChem BioAssay AID1159580 (chemical genetic matrix, 2015).
The list shows a part of the results, in another mix than the full data. Active and inactive are the calls of the source. Cut-off read from the data, not from the text of the source: active = normalized growth mostly below about 0.91 (no sharp cut-off); inconclusive = no clear call, values can overlap the other calls; inactive = mostly above about 0.92.

Test: chemical genetic growth profiling, strain panel (AID 1159580);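 note: tested at 20 µM; growth read once vehicle control cultures reached saturation at 30 °C; 1 = growth at the plate median or of vehicle wells; lower values mean less growth of the strain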
Settings: growth OD

Measured: normalized growth

CN(CCCl)CCCl
active: S. cerevisiae deletion strains, locus YJR066W, strain TOR1, hits give low values 0.0142 | S. cerevisiae deletion strains, locus YJR075W, strain HOC1, hits give low values 0.0654 | S. cerevisiae deletion strains, locus YKL009W, strain mrt4, hits give low values 0.0849 | S. cerevisiae deletion strains, locus YKL068W, hits give low values 0.0604 | S. cerevisiae deletion strains, locus YKL085W, strain MDH1 (second series), hits give low values 0.054 | S. cerevisiae deletion strains, locus YKL085W, strain MDH1, hits give low values 0.054 | S. cerevisiae deletion strains, locus YKL160W, strain elf1, hits give low values 0.0629 | S. cerevisiae deletion strains, locus YKL190W, strain CNB1, hits give low values 0.0509 | S. cerevisiae deletion strains, locus YKR001C, strain vps1, hits give low values 0.0643 | S. cerevisiae deletion strains, locus YKR026C, strain gcn3, hits give low values 0.065 | S. cerevisiae deletion strains, locus YKR091W, strain srl3, hits give low values 0.0603 | S. cerevisiae deletion strains, locus YLL001W, strain dnm1, hits give low values 0.0595 | S. cerevisiae deletion strains, locus YLL026W, hits give low values 0.0607 | S. cerevisiae deletion strains, locus YLL041C, strain sdh2, hits give low values 0.0588 | S. cerevisiae deletion strains, locus YLR027C, strain aat2, hits give low values 0.0557 | S. cerevisiae deletion strains, locus YLR039C, strain RIC1, hits give low values 0.0984 | S. cerevisiae deletion strains, locus YLR058C, strain SHM2, hits give low values 0.051 | S. cerevisiae deletion strains, locus YLR102C, strain apc9, hits give low values 0.0624 | S. cerevisiae deletion strains, locus YLR113W, strain HOG1, hits give low values 0.127 | S. cerevisiae deletion strains, locus YLR221C, strain rsa3, hits give low values 0.062 | S. cerevisiae deletion strains, locus YLR258W, strain gsy2, hits give low values 0.0616 | S. cerevisiae deletion strains, locus YLR262C, strain YPT6 (second series), hits give low values 0.0823 | S. cerevisiae deletion strains, locus YLR262C, strain YPT6, hits give low values 0.11 | S. cerevisiae deletion strains, locus YLR268W, strain sec22, hits give low values 0.0656 | S. cerevisiae deletion strains, locus YLR320W, strain mms22, hits give low values 0.0861 | S. cerevisiae deletion strains, locus YLR330W, strain CHS5, hits give low values 0.0554 | S. cerevisiae deletion strains, locus YLR342W, strain FKS1 (second series), hits give low values 0.0772 | S. cerevisiae deletion strains, locus YLR342W, strain FKS1, hits give low values 0.0663 | S. cerevisiae deletion strains, locus YLR357W, strain rsc2, hits give low values 0.121 | S. cerevisiae deletion strains, locus YLR370C, strain arc18, hits give low values 0.0609 | S. cerevisiae deletion strains, locus YLR371W, strain rom2, hits give low values 0.0633 | S. cerevisiae deletion strains, locus YLR384C, strain iki3, hits give low values 0.0625 | S. cerevisiae deletion strains, locus YLR418C, strain cdc73, hits give low values 0.0939 | S. cerevisiae deletion strains, locus YML016C, strain PPZ1, hits give low values 0.0519 | S. cerevisiae deletion strains, locus YML032C, strain rad52, hits give low values 0.0693 | S. cerevisiae deletion strains, locus YML120C, strain ndi1, hits give low values 0.0588 | S. cerevisiae deletion strains, locus YML124C, strain tub3, hits give low values 0.0596 | S. cerevisiae deletion strains, locus YMR058W, strain fet3, hits give low values 0.0595 | S. cerevisiae deletion strains, locus YMR078C, strain ctf18, hits give low values 0.0743 | S. cerevisiae deletion strains, locus YMR125W, strain sto1, hits give low values 0.0732 | S. cerevisiae deletion strains, locus YMR129W, hits give low values 0.0577 | S. cerevisiae deletion strains, locus YMR205C, strain PFK2, hits give low values 0.0855 | S. cerevisiae deletion strains, locus YMR223W, strain ubp8, hits give low values 0.0632 | S. cerevisiae deletion strains, locus YMR231W, strain pep5, hits give low values 0.0696 | S. cerevisiae deletion strains, locus YMR263W, strain SAP30, hits give low values 0.0646 | S. cerevisiae deletion strains, locus YMR307W, strain GAS1, hits give low values 0.121 | S. cerevisiae deletion strains, locus YNL067W, strain RPL9B, hits give low values 0.0543 | S. cerevisiae deletion strains, locus YNL071W, strain lat1, hits give low values 0.0605 | S. cerevisiae deletion strains, locus YNL128W, strain TEP1, hits give low values 0.0653 | S. cerevisiae deletion strains, locus YNL153C, strain GIM3, hits give low values 0.0483 | S. cerevisiae deletion strains, locus YNL183C, strain NPR1, hits give low values 0.00229 | S. cerevisiae deletion strains, locus YNL209W, strain ssb2, hits give low values 0.0607 | S. cerevisiae deletion strains, locus YNL233W, strain BNI4, hits give low values 0.0557 | S. cerevisiae deletion strains, locus YNL248C, strain rpa49, hits give low values 0.0717 | S. cerevisiae deletion strains, locus YNL250W, strain rad50, hits give low values 0.0702 | S. cerevisiae deletion strains, locus YNL271C, strain bni1, hits give low values 0.0672 | S. cerevisiae deletion strains, locus YNL298W, strain CLA4, hits give low values 0.0642 | S. cerevisiae deletion strains, locus YNL307C, strain MCK1, hits give low values 0.0699 | S. cerevisiae deletion strains, locus YNL322C, strain KRE1 (second series), hits give low values 0.0856 | S. cerevisiae deletion strains, locus YNL322C, strain KRE1, hits give low values 0.0511 | S. cerevisiae deletion strains, locus YNR049C, strain mso1, hits give low values 0.0575 | S. cerevisiae deletion strains, locus YNR052C, strain pop2, hits give low values 0.0643 | S. cerevisiae deletion strains, locus YOL006C, strain TOP1, hits give low values 0.116 | S. cerevisiae deletion strains, locus YOL147C, strain pex11, hits give low values 0.0577 | S. cerevisiae deletion strains, locus YOR001W, strain rrp6, hits give low values 0.0707 | S. cerevisiae deletion strains, locus YOR061W, strain CKA2, hits give low values 0.047 | S. cerevisiae deletion strains, locus YOR069W, strain VPS5, hits give low values 0.0544 | S. cerevisiae deletion strains, locus YOR070C, strain gyp1, hits give low values 0.0603 | S. cerevisiae deletion strains, locus YOR080W, strain dia2, hits give low values 0.0708 | S. cerevisiae deletion strains, locus YOR083W, strain WHI5, hits give low values 0.0636 | S. cerevisiae deletion strains, locus YOR106W, strain vam3, hits give low values 0.0609 | S. cerevisiae deletion strains, locus YOR136W, strain idh2, hits give low values 0.0736 | S. cerevisiae deletion strains, locus YOR144C, strain elg1, hits give low values 0.0589 | S. cerevisiae deletion strains, locus YOR184W, strain ser1, hits give low values 0.0702 | S. cerevisiae deletion strains, locus YOR231W, strain MKK1, hits give low values 0.118 | S. cerevisiae deletion strains, locus YOR265W, strain rbl2, hits give low values 0.0581 | S. cerevisiae deletion strains, locus YOR270C, strain vph1, hits give low values 0.0929 | S. cerevisiae deletion strains, locus YOR290C, strain snf2, hits give low values 0.0656 | S. cerevisiae deletion strains, locus YOR316C, strain cot1, hits give low values 0.0595 | S. cerevisiae deletion strains, locus YPL051W, strain arl3, hits give low values 0.0646 | S. cerevisiae deletion strains, locus YPL055C, strain LGE1, hits give low values 0.0719 | S. cerevisiae deletion strains, locus YPL078C, strain atp4, hits give low values 0.0631 | S. cerevisiae deletion strains, locus YPL106C, strain sse1, hits give low values 0.106 | S. cerevisiae deletion strains, locus YPL240C, strain hsp82, hits give low values 0.057 | S. cerevisiae deletion strains, locus YPL241C, strain CIN2, hits give low values 0.0556 | S. cerevisiae deletion strains, locus YPL256C, strain CLN2, hits give low values 0.147 | S. cerevisiae deletion strains, locus YPR119W, strain clb2, hits give low values 0.0641 | S. cerevisiae deletion strains, locus YPR141C, strain kar3, hits give low values 0.0749 | S. cerevisiae deletion strains, locus YPR163C, strain tif3, hits give low values 0.0712 | S. cerevisiae deletion strains, locus YPR167C, strain met16, hits give low values 0.0619 | S. cerevisiae deletion strains, strain wtn01, hits give low values 0.0597 | S. cerevisiae strains, strain wild type, hits give low values 0.0496
